Experimental data: ChEMBL document CHEMBL1133118 (J Med Chem, 2000)

Sequences of proteins named here, by UniProt entry; tags and fusion partners are left off. A change or cut given only in a name is not applied to a line headed by its entry.
UniProt P30542, whole entry, looked up: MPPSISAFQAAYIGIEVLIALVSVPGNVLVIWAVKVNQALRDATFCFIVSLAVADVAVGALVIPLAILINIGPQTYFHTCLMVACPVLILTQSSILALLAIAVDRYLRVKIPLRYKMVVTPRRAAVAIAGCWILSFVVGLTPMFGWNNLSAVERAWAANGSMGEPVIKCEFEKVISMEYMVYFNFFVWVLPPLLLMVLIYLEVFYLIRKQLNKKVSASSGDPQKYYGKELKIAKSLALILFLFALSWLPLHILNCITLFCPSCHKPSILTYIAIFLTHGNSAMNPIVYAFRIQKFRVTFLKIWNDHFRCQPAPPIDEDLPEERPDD
UniProt P0DMS8, whole entry, looked up: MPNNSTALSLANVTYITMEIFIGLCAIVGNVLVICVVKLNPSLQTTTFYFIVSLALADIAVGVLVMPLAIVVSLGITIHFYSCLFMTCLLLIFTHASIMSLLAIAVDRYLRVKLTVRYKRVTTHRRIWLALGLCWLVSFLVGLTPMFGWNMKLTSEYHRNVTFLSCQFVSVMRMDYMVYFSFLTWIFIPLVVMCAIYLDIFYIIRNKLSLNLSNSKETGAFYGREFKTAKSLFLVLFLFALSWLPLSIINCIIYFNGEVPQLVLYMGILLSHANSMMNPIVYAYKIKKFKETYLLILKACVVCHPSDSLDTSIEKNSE
UniProt P29275: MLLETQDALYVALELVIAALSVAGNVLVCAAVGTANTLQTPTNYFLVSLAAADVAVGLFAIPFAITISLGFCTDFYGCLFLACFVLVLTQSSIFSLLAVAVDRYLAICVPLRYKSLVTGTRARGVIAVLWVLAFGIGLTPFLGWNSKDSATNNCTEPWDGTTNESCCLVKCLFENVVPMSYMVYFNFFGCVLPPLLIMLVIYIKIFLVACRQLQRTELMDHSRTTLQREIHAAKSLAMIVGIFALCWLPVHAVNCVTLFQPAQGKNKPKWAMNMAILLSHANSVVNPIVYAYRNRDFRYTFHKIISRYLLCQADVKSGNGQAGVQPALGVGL

How the values were obtained:
[1] = target: Adenosine receptors; A1 & A3 (Homo sapiens) (UniProt P30542+P0DMS8); assay: Ratio of binding affinity of human A1 receptor to that of human A3 receptor; type: protein assay
In short: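 Ki ratio from displacement in CHO membranes, 6–8 concentrations, n=3-6, filtration counting. A1: 1 nM [3H]DPCPX, 50 μg protein, 120 min at 25 °C, nonspecific with 10 μM CHA. A3: 1 nM [3H]MRE3008-F20, 50 μg protein, Tris/10 mM MgCl2 pH 7.4, 120 min at 4 °C, nonspecific with 1 μM MRE3008-F20.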

Adenosine receptor A3 [2] = target: T1, Adenosine receptor A3 (Homo sapiens, UniProt P0DMS8); assay: biochemical
[3] = target: Adenosine receptors; A2b & A3 (Homo sapiens) (UniProt P29275+P0DMS8); assay: Ratio of binding affinity of human A2B receptor to that of human A3 receptor; type: protein assay
In short: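 Ki ratio, n=3-6, 6–8 concentrations. A2B in HEK-293 membranes (20 μg): 40 nM [3H]DPCPX, 50 mM Tris HCl, 10 mM MgCl2, 1 mM EDTA, 0.1 mM benzamidine pH 7.4, 2 IU/mL adenosine deaminase, 60 min at 25 °C, nonspecific with 100 μM NECA. A3 in CHO membranes (50 μg): 1 nM [3H]MRE3008-F20, 120 min at 4 °C.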

Adenosine receptor A3 [4] = target: T1, Adenosine receptor A3; assay: Inhibition of cAMP accumulation in CHO cells expressing human adenosine A3 receptor; range 4.4-6.5; type: functional, cell-based

Question: Which results are given for `CCCn1cc2c(nc(NC(=O)Nc3ccc(OC)cc3)n3nc(-c4ccco4)nc23)n1`?
Answer: Ratio [1]: 1500; Ki (Adenosine receptor A3 [2]): 0.8 nM; Ratio [3]: 2570; IC50 (Adenosine receptor A3 [4]): 5.2 nM
